According to paper PMC4382182, “Characterization of Phospho-(Tyrosine)-Mimetic Calmodulin Mutants” (PLoS ONE, 2015):

Molecular target: endothelial nitric oxide synthase (eNOS) (bovine recombinant baculovirus-expressed in Sf9 cells) (bovine) (UniProt P29473)

Substance: wild type calmodulin (CaM) (from UniProt P0DP30 1-149) (natural protein)
- Kact of CaM for the activation of eNOS (eNOS activity at increasing concentrations of CaM): 0.1 µM

Substance: CaM(Y99E/Y138E) (from UniProt P0DP30 1-149) (natural protein)
- Kact of CaM for the activation of eNOS (eNOS activity at increasing concentrations of CaM): 0.1 µM
